The list shows a part of the results, in another mix than the full data. Some salts or complexes appear as unconnected parts, following the source record. Activity calls are given as the source filed them.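 Rule for the calls: active = binding more than 3 SD below its plate's average and above zero; inconclusive = below that plate limit but binding exactly zero; inactive = the rest.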

Amino acid sequences for entries named in this document (tags omitted).
UniProt P32926, whole entry, looked up: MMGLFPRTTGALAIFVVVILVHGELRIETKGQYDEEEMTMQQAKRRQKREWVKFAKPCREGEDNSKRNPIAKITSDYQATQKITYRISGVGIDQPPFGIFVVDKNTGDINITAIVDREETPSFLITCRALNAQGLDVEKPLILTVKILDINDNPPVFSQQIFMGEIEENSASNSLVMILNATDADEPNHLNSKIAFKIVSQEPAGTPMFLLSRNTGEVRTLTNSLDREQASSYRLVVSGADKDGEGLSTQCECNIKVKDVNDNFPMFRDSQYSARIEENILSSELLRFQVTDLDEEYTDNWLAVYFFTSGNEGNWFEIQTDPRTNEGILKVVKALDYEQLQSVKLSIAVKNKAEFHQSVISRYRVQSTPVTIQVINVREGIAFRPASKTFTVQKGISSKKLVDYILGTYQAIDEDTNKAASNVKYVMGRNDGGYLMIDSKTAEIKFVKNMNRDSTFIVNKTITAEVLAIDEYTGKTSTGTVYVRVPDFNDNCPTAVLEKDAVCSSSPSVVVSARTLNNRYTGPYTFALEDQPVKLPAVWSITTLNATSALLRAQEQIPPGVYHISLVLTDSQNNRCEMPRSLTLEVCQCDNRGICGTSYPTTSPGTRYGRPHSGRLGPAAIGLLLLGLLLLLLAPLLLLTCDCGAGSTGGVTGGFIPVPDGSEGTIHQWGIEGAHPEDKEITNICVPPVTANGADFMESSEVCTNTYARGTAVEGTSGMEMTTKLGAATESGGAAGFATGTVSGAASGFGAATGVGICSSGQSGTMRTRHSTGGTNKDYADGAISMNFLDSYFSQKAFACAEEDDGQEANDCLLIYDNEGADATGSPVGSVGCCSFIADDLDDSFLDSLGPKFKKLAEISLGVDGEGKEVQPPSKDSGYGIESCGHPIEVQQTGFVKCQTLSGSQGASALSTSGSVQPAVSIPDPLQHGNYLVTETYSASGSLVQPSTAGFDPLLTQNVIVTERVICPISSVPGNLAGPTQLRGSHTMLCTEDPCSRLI

This experiment deals with Desmoglein-3 (Homo sapiens) (UniProt P32926). The experiment is described as follows: inhibitors of pemphigus antibody binding to DSG3, primary screen, biochemical, bead-based, flow cytometry, scFv-GFP (AID 588358).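 Note: hits lower antibody fragment binding to DSG3.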 The conditions noted are these: DSG3-coupled beads, scFv-anti-DSG3-GFP binding, at 10 µM, active compounds read low. Background: In flow cytometry, cells or beads pass a laser one at a time.
Consider `COc1ccc(OP(C)(=O)Nc2cccc(F)c2)cc1` (configuration not stated), for which the binding (percent of control) was inactive: 102%.

`COc1ccccc1OP(C)(=O)Nc1cc(Cl)ccc1C` (configuration not stated): the binding (percent of control) was inactive: 104%.

Consider `CCOC(=O)c1ccc(NP(C)(=O)Oc2ccccc2)cc1` (configuration not stated), for which the binding (percent of control) is inactive: 102%.

Regarding `Cc1ccc(NP(C)(=O)Oc2ccccc2)c(C)c1` (configuration not stated), the binding (percent of control) was inactive: 102%.

As to `COc1ccccc1OP(C)(=O)Nc1ccc(C)cc1` (configuration not stated), the binding (percent of control) was inactive: 102%.

For the compound `Cc1cccc(C)c1OP(C)(N)=O` (configuration not stated), the binding (percent of control) was inactive: 73%.

As for `CC(C)(C)c1ccc(OP(C)(=O)Nc2ccc(SC(F)(F)F)cc2)cc1` (configuration not stated), the binding (percent of control) was inactive: 90.5%.

`O=[N+]([O-])c1ccc2c(c1)C=Nc1ccccc1O2`: the binding (percent of control) was inactive: 93.7%.

On to `O=[N+]([O-])c1cc([N+](=O)[O-])c(Nc2cccnc2)c([N+](=O)[O-])c1`, for which the binding (percent of control) was inactive: 107%.

`CCN(CC)CCCOC(=O)C(O)(c1ccccc1)c1ccccc1`: the binding (percent of control) was inactive: 101%.

For the compound `CP(=O)(Nc1ccccn1)Oc1ccc(Cl)cc1` (configuration not stated), the binding (percent of control) was inactive: 89.1%.

As to `CCOP(C)(=S)SCC(=O)NC(C)C(=O)O` (configuration not stated), the binding (percent of control) was inactive: 106%.

Consider `CCOC(=O)c1ccc(NP(C)(=O)Oc2ccc(OC)cc2)cc1` (configuration not stated), for which the binding (percent of control) is inactive: 109%.

Regarding `O=[N+]([O-])c1cc([N+](=O)[O-])c(O)c([N+](=O)[O-])c1.c1ccc(Oc2ccncc2)cc1`, the binding (percent of control) was inactive: 105%.

With `Cc1cc(C)cc(OP(C)(=O)Nc2ccc(SC(F)(F)F)cc2)c1` (configuration not stated), the binding (percent of control) is inactive: 99.1%.

`CP(=O)(NC(=O)Nc1ccccc1)Oc1ccccc1` (configuration not stated): the binding (percent of control) is inactive: 100%.

For the compound `CCc1ccc(OP(C)(=O)N2CCN(c3ccc([N+](=O)[O-])cc3)CC2)cc1` (configuration not stated), the binding (percent of control) is inactive: 103%.

Turning to `CP(=O)(Oc1ccccc1)OC(c1ccccc1)C(F)(F)F` (configuration not stated), the binding (percent of control) is inactive: 99.2%.

On to `Cc1ccc(Nc2c([N+](=O)[O-])cc([N+](=O)[O-])cc2[N+](=O)[O-])cc1`, for which the binding (percent of control) is inactive: 94.4%.

Regarding `Cc1cccc(C)c1OP(C)(=O)Nc1ccc(SC(F)(F)F)cc1` (configuration not stated), the binding (percent of control) is inactive: 111%.

`CP(=O)(Nc1ccc(SC(F)(F)F)cc1)Oc1ccc(Cl)cc1` (configuration not stated): the binding (percent of control) is inactive: 98%.

On to `COc1ccccc1OP(C)(=O)Nc1ccccc1` (configuration not stated), for which the binding (percent of control) is inactive: 106%.

For the compound `CP(=O)(Nc1ccccc1Br)Oc1ccccc1` (configuration not stated), the binding (percent of control) was inactive: 98%.

Turning to `CP(=S)(Nn1cnnc1)Oc1ccccc1` (configuration not stated), the binding (percent of control) was inactive: 103%.

Regarding `CCCOc1ccc(NP(C)(=O)Oc2ccc(Cl)cc2)cc1` (configuration not stated), the binding (percent of control) is inactive: 98.7%.

Consider `CP(=O)(Nc1ccc(SC(F)(F)F)cc1)Oc1ccccc1` (configuration not stated), for which the binding (percent of control) was inactive: 130%.

As for `COc1ccccc1OP(C)(=O)Nc1c(C)cccc1C` (configuration not stated), the binding (percent of control) was inactive: 99.2%.

Take `CN1CCCCC1COC(=O)C1(O)c2ccccc2CCc2ccccc21` (configuration not stated): the binding (percent of control) is inactive: 104%.

For the compound `CCOC(=O)C(CC)C1=NC(C)(C)Cc2ccccc21.O=[N+]([O-])c1cc([N+](=O)[O-])c(O)c([N+](=O)[O-])c1` (configuration not stated), the binding (percent of control) was inactive: 98.7%.

On to `CC1=C2N=C(C=C3N=C(C(C)=C4[N-][C@@](C)([C@@H]5N=C1[C@](C)(CCC(=O)NC[C@@H](C)OP(=O)([O-])O[C@H]1[C@@H](O)[C@@H](n6cnc7cc(C)c(C)cc76)O[C@@H]1CO)[C@H]5CC(N)=O)[C@@](C)(CC(N)=O)[C@@H]4CCC(N)=O)[C@@](C)(CC(N)=O)[C@@H]3CCC(N)=O)C(C)(C)[C@@H]2CCC(N)=O.[C-]#N.[Co+3]`, for which the binding (percent of control) was inactive: 102%.

With `O=[N+]([O-])c1cc([N+](=O)[O-])c(Nc2nnnn2CCO)c([N+](=O)[O-])c1`, the binding (percent of control) was inactive: 94.4%.

For the compound `Cc1nc2ccc3ccccc3c2s1.O=[N+]([O-])c1cc([N+](=O)[O-])c(O)c([N+](=O)[O-])c1`, the binding (percent of control) is inactive: 103%.

As for `O=[N+]([O-])c1cc([N+](=O)[O-])c(-c2cnn(-c3ccccc3)c2)c([N+](=O)[O-])c1`, the binding (percent of control) was inactive: 106%.

Consider `O=[N+]([O-])c1cc([N+](=O)[O-])c(-n2nnc3ccccc32)c([N+](=O)[O-])c1`, for which the binding (percent of control) is inactive: 102%.

In the case of `Cc1cc(C)cc(OP(C)(=O)Nc2ccccn2)c1` (configuration not stated), the binding (percent of control) was inactive: 96.5%.

With `CP(=O)(Nc1cccc(Br)c1)Oc1ccccc1` (configuration not stated), the binding (percent of control) was inactive: 110%.

Turning to `Cc1ccc(C)c(NP(C)(=O)Oc2ccccc2)c1` (configuration not stated), the binding (percent of control) was inactive: 105%.

`Cc1cc(C)cc(OP(C)(=O)Nc2ccc(C)cc2C)c1` (configuration not stated): the binding (percent of control) was inactive: 108%.

Regarding `CCOC(=O)c1ccc(NP(C)(=O)Oc2cc(C)cc(C)c2)cc1` (configuration not stated), the binding (percent of control) was inactive: 94.3%.

With `COc1ccccc1OP(C)(=O)Nc1cccc(Br)c1` (configuration not stated), the binding (percent of control) was inactive: 95.2%.

Consider `O=C(O)c1cccc(Nc2c([N+](=O)[O-])cc([N+](=O)[O-])cc2[N+](=O)[O-])c1`, for which the binding (percent of control) was inactive: 94.1%.

On to `CCCCCOc1ccc(NP(C)(=O)Oc2ccc(Cl)cc2Cl)cc1` (configuration not stated), for which the binding (percent of control) was inactive: 99.2%.

As to `O=[N+]([O-])c1cc([N+](=O)[O-])c(OC2CCCCC2O)c([N+](=O)[O-])c1` (configuration not stated), the binding (percent of control) is inactive: 113%.

As to `CP(=O)(Nc1ccccc1)Oc1ccc(F)cc1` (configuration not stated), the binding (percent of control) was inactive: 92.7%.

As to `Cc1c([N+](=O)[O-])cc([N+](=O)[O-])c(Br)c1[N+](=O)[O-]`, the binding (percent of control) was inactive: 116%.

`COc1ccc(OP(C)(=O)Nc2ccc(SC(F)(F)F)cc2)cc1` (configuration not stated): the binding (percent of control) was inactive: 106%.

With `CCOC(=O)c1ccc(NP(C)(=O)Oc2ccc(F)cc2)cc1` (configuration not stated), the binding (percent of control) is inactive: 121%.

With `COc1ccc2c(c1O)-c1c(O)c(OC)cc3c1[C@H](C2)[N+](C)(C)CC3.O=[N+]([O-])c1cc([N+](=O)[O-])c([O-])c([N+](=O)[O-])c1[O-]`, the binding (percent of control) was inactive: 100%.

For `O=C(OCCN1CCN(CCOCc2ccccc2)CC1)C(O)(c1ccccc1)c1ccccc1`, the binding (percent of control) is inactive: 127%.

For `O=C(OC1CN2CCC1CC2)c1ccc([N+](=O)[O-])cc1` (configuration not stated), the binding (percent of control) is inactive: 117%.

As to `CC(C)c1ccc(OP(C)(=O)Nc2ccc(SC(F)(F)F)cc2)cc1` (configuration not stated), the binding (percent of control) was inactive: 102%.

For the compound `CP(=O)(Nc1ccccc1F)Oc1ccccc1` (configuration not stated), the binding (percent of control) was inactive: 102%.

For `O=[N+]([O-])c1cc([N+](=O)[O-])c(Nc2ccc(Cl)cc2)c([N+](=O)[O-])c1`, the binding (percent of control) was inactive: 99%.

Consider `Cc1ccccc1NP(C)(=O)Nc1ccccc1C`, for which the binding (percent of control) was inactive: 108%.

`CP(=O)(Nc1ccc2c(c1)OCCO2)Oc1ccccc1` (configuration not stated): the binding (percent of control) is inactive: 102%.

For the compound `Cc1c(C(c2ccc3c(c2)OCO3)c2c(C)n(C)n(-c3ccccc3)c2=O)c(=O)n(-c2ccccc2)n1C.O=[N+]([O-])c1cc([N+](=O)[O-])c(O)c([N+](=O)[O-])c1`, the binding (percent of control) is inactive: 103%.

On to `Cc1cc(-c2cccc3ccccc23)c(C)cn1.O=[N+]([O-])c1cc([N+](=O)[O-])c(O)c([N+](=O)[O-])c1`, for which the binding (percent of control) is inactive: 102%.

Consider `O=[N+]([O-])c1cc([N+](=O)[O-])c(NCC2CCS(=O)(=O)C2)c([N+](=O)[O-])c1` (configuration not stated), for which the binding (percent of control) was inactive: 102%.

For the compound `O=[N+]([O-])c1ccc(OP2(=O)COCCO2)cc1` (configuration not stated), the binding (percent of control) was inactive: 92%.

`COc1ccc(NP(C)(=O)Oc2ccccc2OC)cc1` (configuration not stated): the binding (percent of control) is inactive: 101%.

With `CN(C)CCOC(=O)C(O)(c1ccccc1)C1CCCCC1` (configuration not stated), the binding (percent of control) was inactive: 89.1%.

Consider `COc1ccc(OP(C)(=O)Nc2cccc(Br)c2)cc1` (configuration not stated), for which the binding (percent of control) is inactive: 103%.

Turning to `CP(=O)(OC12CC3CC(CC(C3)C1)C2)OC12CC3CC(CC(C3)C1)C2`, the binding (percent of control) is inactive: 102%.

`CCOC(=O)c1ccc(NP(C)(=O)Oc2ccc(Cl)cc2)cc1` (configuration not stated): the binding (percent of control) was inactive: 127%.

As for `Nc1ccc2c(ccc3cccnc32)n1.O=[N+]([O-])c1cc([N+](=O)[O-])c(O)c([N+](=O)[O-])c1`, the binding (percent of control) is inactive: 98%.

With `CN(C)C(=O)c1c([N+](=O)[O-])cc([N+](=O)[O-])cc1[N+](=O)[O-]`, the binding (percent of control) was inactive: 99.8%.

With `CP(=O)(Nc1ccc(Cl)cc1)Oc1ccc(F)cc1` (configuration not stated), the binding (percent of control) was inactive: 103%.

On to `COc1ccccc1OP(C)(=O)Nc1ccccc1Br` (configuration not stated), for which the binding (percent of control) is inactive: 95.3%.

In the case of `CC(C)(C)c1ccc(OP(C)(=O)O)cc1`, the binding (percent of control) was inactive: 103%.

As to `CP(=O)(Oc1ccccc1)N1CCOC1=O` (configuration not stated), the binding (percent of control) was inactive: 108%.

As to `COc1ccccc1OP(C)(=O)Nc1c(C)n(C)n(-c2ccccc2)c1=O` (configuration not stated), the binding (percent of control) is inactive: 101%.

Take `COc1ccc(OP(C)(=O)Nc2ccc(Br)cc2)cc1` (configuration not stated): the binding (percent of control) is inactive: 106%.

For the compound `CCc1ccc(OP(C)(=O)O)cc1`, the binding (percent of control) was inactive: 96.1%.

As to `COc1ccccc1OP(C)(=O)Nc1ccc(C)cc1C` (configuration not stated), the binding (percent of control) is inactive: 91.7%.

Consider `CP(=O)(Nc1ccccn1)Oc1ccccc1` (configuration not stated), for which the binding (percent of control) is inactive: 98.8%.

In the case of `Cc1c(NP(C)(=O)Oc2ccc(C(C)C)cc2)c(=O)n(-c2ccccc2)n1C` (configuration not stated), the binding (percent of control) was inactive: 100%.

Regarding `O=[N+]([O-])c1cc([N+](=O)[O-])c(Nc2ccccn2)c([N+](=O)[O-])c1`, the binding (percent of control) is inactive: 104%.

`CN(C)CCOC(=O)C(O)(c1ccccc1)C1CCCC1` (configuration not stated): the binding (percent of control) is inactive: 104%.

As for `COc1ccc(OP(C)(=O)Nc2ccccn2)cc1` (configuration not stated), the binding (percent of control) was inactive: 93.2%.

Consider `COc1ccccc1OP(C)(=O)Nc1ccc(Br)cc1` (configuration not stated), for which the binding (percent of control) was inactive: 82.3%.

Consider `CCCCCCCCCCCCCCCC1C[N+](C)(C)CCOP(C)(=O)O1` (configuration not stated), for which the binding (percent of control) was inactive: 121%.

`CP(=O)(Nc1ccc(Cl)cc1Cl)Oc1ccccc1` (configuration not stated): the binding (percent of control) was inactive: 104%.

For `CP(=O)(OCCOc1ccccc1)OCCOc1ccccc1`, the binding (percent of control) is inactive: 104%.

For the compound `COc1ccc(OP(C)(=O)Nc2ccccc2Br)cc1` (configuration not stated), the binding (percent of control) was inactive: 95%.

In the case of `COc1ccccc1OP(C)(=O)Nc1ccc(C)c(C)c1` (configuration not stated), the binding (percent of control) was inactive: 100%.

Take `Cc1cc(C)cc(OP(C)(=O)Nc2cccc(C(F)(F)F)c2)c1` (configuration not stated): the binding (percent of control) is inactive: 104%.

In the case of `O=C1C(O)=C([N+](=O)[O-])C(=O)C(O)=C1[N+](=O)[O-]`, the binding (percent of control) was inactive: 119%.
